# Apparent affinities of Ab-14 variants for a coronavirus HR2 peptide

Data: MIT Lincoln Laboratory AlphaSeq set, Li et al. 2023, doi:10.1038/s41467-023-39022-2, as distributed in FLAb.

All variants were tested on one target, the spike HR2 peptide PDVDLGDISGINAS (SARS-CoV-2).

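Phage display of a naive human antibody library on the peptide gave the parent. This is the validation round: designs drawn from the data on random variants, tested in the same kind of assay. Several design methods are mixed in this list. AlphaSeq pools MATa yeast showing the antibodies with MATalpha yeast showing the peptide. The frequency of each diploid, read from paired DNA barcodes, reflects how well the two displayed proteins bind. Each replicate has its own calibration line, from reference interactions of the BCL2 family. Each pool was mated in six replicate cultures.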

The variants keep the heavy chain, the linker and the frameworks of Ab-14 (scFv order VH, the linker GGGGSGGGGSGGGGS, VL).
VH: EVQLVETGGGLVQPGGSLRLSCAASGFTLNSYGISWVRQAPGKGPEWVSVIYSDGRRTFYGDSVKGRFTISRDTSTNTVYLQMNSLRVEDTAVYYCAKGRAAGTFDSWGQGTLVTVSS
VL: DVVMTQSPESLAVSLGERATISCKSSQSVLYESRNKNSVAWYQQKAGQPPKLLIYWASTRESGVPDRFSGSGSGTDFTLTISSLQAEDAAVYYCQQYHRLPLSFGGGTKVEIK

Each variant is given by its three light chain CDRs, as the data file delimits them; those of the parent are KSSQSVLYESRNKNSVA, WASTRES, QQYHRLPLS.
This list holds designs with at most six substitutions.
Kd is apparent (estimated from mating counts) and averaged on the log scale over replicates with a signal. Smaller is tighter.
Where no diploid with the target was found in any replicate, the entry reads "nd": below detection, most likely a poor binder, though not proof of it.

- MSSQSVTYESRNKNSVA / WASTRES / QQYHRLPLS -> nd (0 of 6 replicates; controls 1 of 18)
- KFSQSVLGESRNKNSVA / WASTRES / QQYHRIPIS -> 7.9 nM (6 of 6 replicates; controls 1 of 18)
- KMEIGVLYESRNKNSVA / GASVRES / QQYHRLPLS -> 3.6 nM (6 of 6 replicates; controls 0 of 18)
- KWSQSVLMESRNCNSVA / DASTRES / QQYHRLPLS -> 1.9 nM (6 of 6 replicates; controls 4 of 18)
- KVSQSGLYESRNKNSVA / EASTRES / QQYHRLPLS -> 11 nM (6 of 6 replicates; controls 0 of 18)
- KMSISVLPESRNKNSVA / QAMTRES / QLYHRLPLS -> 320 nM (4 of 6 replicates; controls 0 of 18)
- KVPQSELYESRNKNSVA / EASQRES / QQYHRLPLS -> 1.2 nM (6 of 6 replicates; controls 0 of 18)
- KSSESVLVESRNKNSVA / WASTRES / QQLHRIPES -> nd (0 of 6 replicates; controls 0 of 18)
- KSSQSVWYESRNTNSVA / WASTRES / QQYHVLPLS -> 78 nM (5 of 6 replicates; controls 2 of 18)
- KLRMSTLYESRNKNSVA / SASTRES / QQYHRLPLS -> 320 pM (6 of 6 replicates; controls 0 of 18)
- KLSQSNLYESRNKNNVA / NASTRES / QQYHRLPLS -> 950 pM (6 of 6 replicates; controls 0 of 18)
- KSSQGVLYEYANKNSVA / NASTRES / QQYHRLPLS -> 1.0 nM (6 of 6 replicates; controls 2 of 18)
- KSSQVQLYESRNKNSVA / GASTRES / QQYHRLPLS -> 1.3 nM (6 of 6 replicates; controls 1 of 18)
- KSSQSVLYESRNKNNVA / WASTRIS / QQYHRMPLS -> 260 nM (1 of 6 replicates; controls 1 of 18)
- KFSQSVLYEERMKNSVA / DASQRLS / QQYHRLPLS -> 59 nM (4 of 6 replicates; controls 0 of 18)
- KSSTSWLYESRNKNPVA / GASQRES / QQYHRLPLS -> 2.5 nM (6 of 6 replicates; controls 0 of 18)
- KSSQSVLYNQRNKNSVA / WASTRES / QQYHRLPLS -> nd (0 of 6 replicates; controls 0 of 18)
- KFSQSWLYESRNKNSVA / DASQRES / QQYHRLPLS -> 440 pM (6 of 6 replicates; controls 2 of 18)
- KLSQSDLYESRNKNSVA / QASTRES / QDYHRLPLS -> 1.0 nM (6 of 6 replicates; controls 3 of 18)
- KSSQEYHYESRNKNSVA / GASTRES / QQYHRLPLS -> 2.2 nM (6 of 6 replicates; controls 1 of 18)
- KSPQSVDYESRNKNSVA / DASTRES / QQYHRLPLS -> 930 pM (6 of 6 replicates; controls 0 of 18)
- KSSQSVGYEARNKNSVA / WASTRES / QQYHRLPLS -> 90 nM (2 of 6 replicates; controls 1 of 18)
- KISQAVLYEDRNKNSVA / NANTRES / QQYHRLPLS -> 530 pM (6 of 6 replicates; controls 0 of 18)
- KLSQSELYESRNKNSVA / NASYRES / QQYHRLPLS -> 1.2 nM (6 of 6 replicates; controls 0 of 18)
- KSSQSVLYYSRNKNSVA / EASTRES / QQYHRLPLS -> 16 nM (6 of 6 replicates; controls 0 of 18)
- KLSQSMLYESRNKNSVA / EASTRES / QAYHRLPLS -> 5.3 nM (6 of 6 replicates; controls 0 of 18)
- KLSQSDLYEDRNKNSVA / NASTRES / QQYHRLPLS -> 1.1 nM (6 of 6 replicates; controls 0 of 18)
- KLSQSGLVESSNVNSVA / WASTREH / QQYHRLPLS -> 10 nM (6 of 6 replicates; controls 3 of 18)
- KSSISLLYESRNKNSVA / EASQRES / QQYHRLPLS -> 2.6 nM (6 of 6 replicates; controls 0 of 18)
- KLRQSQLYESRNKNSVA / QASTRES / QQYHRLPLS -> 1.0 nM (6 of 6 replicates; controls 1 of 18)
- KLSQGWLYESRNKNSVA / NASTRES / QQYHRLPLS -> 250 pM (6 of 6 replicates; controls 0 of 18)
- KLPQSWLYESRNKNSVA / NASTRED / QQYHRLPLS -> 910 pM (6 of 6 replicates; controls 1 of 18)
- KLMQSYLYESRNKNSVA / NASQRES / QQYHRLPLS -> 370 pM (6 of 6 replicates; controls 0 of 18)
- KSSQEVLYESRNKNSVA / WASTRED / QQYHRLPLS -> nd (0 of 6 replicates; controls 2 of 18)
- KSSQSVLYESRNKNSVA / NASTREQ / QQYHRLPLS -> 17 nM (5 of 6 replicates; controls 1 of 18)
- KYSQSWGYESRNKNSVA / GASTRES / QQYHRLPLS -> 1.2 nM (6 of 6 replicates; controls 0 of 18)
- KLSQSWLYESRNKNSVA / NASTREW / QQYHRLPLS -> 810 pM (6 of 6 replicates; controls 1 of 18)
- KQSQSVLYENRNKNSVA / WASTRES / QQYHEWPLS -> 310 nM (5 of 6 replicates; controls 0 of 18)
- KLRQSTKYESRNQNSVA / WASTRED / QQYHRLPLS -> 9.2 nM (6 of 6 replicates; controls 2 of 18)
- KSSQSVLWESNNKNSVA / WASTRES / QQYHRLPLS -> 74 nM (6 of 6 replicates; controls 0 of 18)
- KFSQSVLYETVNANSVA / HASTRES / CQYHRLPLS -> 42 nM (2 of 6 replicates; controls 0 of 18)
- KSSQSVNYESQNKNSIA / DASTRES / QQYHRLPLS -> 540 pM (6 of 6 replicates; controls 1 of 18)
- KLQQSWLYESRNKNSVA / EASQRES / QQYHRLPLS -> 520 pM (6 of 6 replicates; controls 1 of 18)

The first 7 entries again:

* MSSQSVTYESRNKNSVA / WASTRES / QQYHRLPLS -> nd (0 of 6 replicates; controls 1 of 18)
* KFSQSVLGESRNKNSVA / WASTRES / QQYHRIPIS -> 7.9 nM (6 of 6 replicates; controls 1 of 18)
* KMEIGVLYESRNKNSVA / GASVRES / QQYHRLPLS -> 3.6 nM (6 of 6 replicates; controls 0 of 18)
* KWSQSVLMESRNCNSVA / DASTRES / QQYHRLPLS -> 1.9 nM (6 of 6 replicates; controls 4 of 18)
* KVSQSGLYESRNKNSVA / EASTRES / QQYHRLPLS -> 11 nM (6 of 6 replicates; controls 0 of 18)
* KMSISVLPESRNKNSVA / QAMTRES / QLYHRLPLS -> 320 nM (4 of 6 replicates; controls 0 of 18)
* KVPQSELYESRNKNSVA / EASQRES / QQYHRLPLS -> 1.2 nM (6 of 6 replicates; controls 0 of 18)

A sequence measured in both rounds can read differently, since the two assays cover different ranges.
The authors averaged sequences with at least three values out of six and counted those with two or fewer as poor binders.
As a blank, each scFv also met three strains without target: over all light chain designs, 4% of these pairings were detected, typically at 430 nM and seldom below 38 nM. Also given: how often the same scFv was detected with the empty control strains.